Data: PubChem BioAssay AID1446 (The Scripps Research Institute Molecular Screening Center, 2008)
Values joined by “and” are separate entries in the source; they are usually repeats but may differ in a detail not shown here. Equal entries are not always repeated. The list shows a part of the results, in another mix than the full data. Active and inactive are the calls of the source.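 How the source made its calls: active means inhibition above the campaign mean plus 3 SD over all tested compounds (cut at about 24% in these data); inactive means the rest.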

Assay: reduced viability of JAK2V617F-dependent Ba/F3 cells, primary screen, JAK2V617F inhibitor project, cell-based, Ba/F3 EpoR-JAK2V617F, luminescence (AID 1446);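 further: cytokine-independent growth of Ba/F3 cells driven by EpoR plus mutant JAK2; 0% = DMSO-treated cells and 100% = JAK inhibitor I control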
Settings: ATP luminescence, at 5.6 µM, stronger effect = higher value

Structure (SMILES) | inhibition
CCOP(=O)(Nc1ccccc1)OCC | inactive: -1.85% and inactive: -0.73%
Cc1ccc(NP(=O)(Oc2ccccc2F)Oc2ccccc2F)nc1 | inactive: 3.13%
Nc1cccc2ccc([As](=O)(O)O)cc12 | inactive: -3%
CCN(N=Nc1nonc1N)c1nonc1N | inactive: -2.93%
O=C(Nc1cc([As](=O)(O)O)ccc1O)c1ccccc1 | inactive: -1.25%
O=[N+]([O-])c1ncn(CCn2ncnc2[N+](=O)[O-])n1 | inactive: 2.92%
CC(C)(C)C(=O)NC(Sc1ccncn1)C(Cl)(Cl)Cl (stereo unspecified) | inactive: -1.02%
O=C(O)CNc1ccc([As](=O)(O)O)cc1 | inactive: -2.11%
O=[N+]([O-])c1cccc(NC2=NCC(CBr)S2)c1 (stereo unspecified) | inactive: 0.76%
COc1ccc(C2=NCC(CBr)S2)cc1 (stereo unspecified) | inactive: 0.62%
Cc1ccc(NP(=O)(Oc2ccccc2)Oc2ccccc2)nc1 | inactive: -2.58%
O=[N+]([O-])c1cc([N+](=O)[O-])c(CCNc2ccccc2)c([N+](=O)[O-])c1 | inactive: 8.92%
CCc1nc2c(n1)c1c(non1O)c1c2no[n+]1[O-] | active: 52%
CC(=O)N1C2C3N(C(C)=O)C1C1N(C(C)=O)C(C(N1C(C)=O)N3C(C)=O)N2C(C)=O | inactive: -2.02%
O=[N+]([O-])c1cccc2n[nH]nc12 | inactive: 1.82%
CCN(/C(=N/P(=O)(N1CCOCC1)N1CCOCC1)N1CCOCC1)c1ccc(OC)cc1 | inactive: 2.42%
Nc1ccc([As](=O)(O)c2ccc(N)cc2)cc1 | inactive: -3.81%
C[N+]1=C2C=CC=CC=C2SC12C([N+](=O)[O-])=CC([N+](=O)[O-])=C[C-]2[N+](=O)[O-] (stereo unspecified) | inactive: -1.57%
CC1CCN(C(=O)Oc2c(Cl)cc(Cl)c3cccnc23)CC1 | inactive: 1.18%
CC(C)=N/N=C(\N)N[N+](=O)[O-] | inactive: 0.18%
CN(C)C(=O)OCCc1n(C)cc[n+]1C | inactive: -3.38%
